{"source": "patent US20040171551A1", "about": "(INSTITUT GUSTAVE ROUSSY IGR A CORPORATION OF FRANCE, published 2004)", "binders": {"B1": {"name": "GST alone (control glutathione S-transferase on glutathione-Sepharose beads) (other, UniProt P08515 1-218, looked up)", "chain": "MSPILGYWKIKGLVQPTRLLLEYLEEKYEEHLYERDEGDKWRNKKFELGLEFPNLPYYIDGDVKLTQSMAIIRYIADKHNMLGGCPKERAEISMLEGAVLDIRYGVSRIAYSKDFETLKVDFLSKLPEMLKMFEDRLCHKTYLNGDHVTHPDFMLYDALDVVLYMDPMCLDAFPKLVCFKKRIEAIPQIDKYLKSSKYIAWPLQGWQATFGGGDHPPK", "notes": "Control for GST-LAP; also called control GST beads"}}, "target": "T1, natural hLAG-3 (70 kDa) protein present in whole cell lysate of PHA-activated human PBMCs (human, UniProt P18627 23-525)", "T1 construct": "Endogenous protein in a 1% NP-40 whole cell lysate; also called LAG-3 protein from the T-cell lysate", "T1 sequence (looked up)": "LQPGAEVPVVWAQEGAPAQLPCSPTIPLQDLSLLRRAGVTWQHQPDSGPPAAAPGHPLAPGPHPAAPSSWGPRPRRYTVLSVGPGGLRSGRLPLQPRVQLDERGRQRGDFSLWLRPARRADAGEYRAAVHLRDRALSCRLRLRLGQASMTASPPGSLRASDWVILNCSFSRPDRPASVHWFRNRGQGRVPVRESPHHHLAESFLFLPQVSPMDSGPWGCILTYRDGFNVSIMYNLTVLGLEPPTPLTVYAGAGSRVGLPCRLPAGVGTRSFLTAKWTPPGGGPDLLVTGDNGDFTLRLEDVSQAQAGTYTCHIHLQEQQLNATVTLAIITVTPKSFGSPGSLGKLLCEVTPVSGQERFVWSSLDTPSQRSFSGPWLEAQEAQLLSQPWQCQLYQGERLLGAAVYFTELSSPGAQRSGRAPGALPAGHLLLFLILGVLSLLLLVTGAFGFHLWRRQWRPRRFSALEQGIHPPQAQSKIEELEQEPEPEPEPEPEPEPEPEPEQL", "assay": "GST pull-down from lysate of PHA-activated T lymphocytes, Western blot", "description": "Bound proteins were incubated with total cell lysates prepared from PHA-activated T lymphocytes. […] Therefore, LAG-3 binds specifically to the LAP protein in vitro, in agreement with the data obtained from the yeast two-hybrid screening procedure.\nThe hLAG-3 protein was synthesized in vitro using the T7-coupled rabbit reticulocyte lysate system (TNT, Promega, Madison, Wis.). Equal amounts of GST-LAP or control GST proteins immobilized on beads were incubated for 3 hrs at 4° C. with direct whole cell lysates (after centrifugation of nuclei) or with the in vitro translated hLAG-3 protein in a binding buffer (20 mM Tris-HCl pH 7.5, 50 mM NaCl, 1 mM PMSF, 1 μg/ml leupeptin, 1 μg/ml aprotinin). Bound proteins were then extensively washed in PBS buffer and analyzed by Western blotting."}
{"binder": "B1", "values": [{"measurement": "binding result", "value": "no binding"}]}
